According to patent publication US20030194732A1, “Interferon-alpha induced gene” (priority 2000, published 2003):

System: HuIFRG46/ADIR mRNA
Experiment: HuIFRG46/ADIR mRNA, Northern blot, interferon-treated HeLa cells in vitro
Format: cell-based, human
Conditions: HeLa cells, 10,000 IU, eight hours
Method: Male DBA/2 mice were injected intraperitoneally (ip) or oromucosally (om) with 100,000 IU of recombinant murine IFN-α purchased from Life Technologies Inc. For ip administration, animals were treated with 100,000IU IFN-α in 200 μl of PBS or treated with an equal volume of PBS alone. For om administration, 10 μl of IFN-α or excipient was applied with a 1 to 20 μl capacity adjustable micropipette to the nostrils of the mice. Four hours after ip or om treatment, the animals were sacrificed by cervical dislocation and tissue from the oral cavity and the spleen were removed using conventional procedures. […] The blots were first exposed to autoradiography and then quantified using a Phospholmager according to the manufacturer's instructions.
HeLa cells were treated in vitro with 10,000 IU of recombinant human IFN-α2 (Intron A from Schering-Plough) in PBS or with an equal volume of PBS alone. […] Enhanced levels of mRNA for HUIFRG46/ADIR protein (approximately 10-fold) were detected in samples of RNA extracted from IFN-α treated HeLa cells compared to samples treated with PBS alone.

IFN-α2: recombinant human IFN-α2 (Intron A from Schering-Plough) [reference compound]
enhanced levels of mRNA for HuIFRG46/ADIR protein vs PBS alone: approximately 10 fold
